Only a part is listed here, and it is no random draw. Activity calls are given as the source filed them.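 Rule for the calls: active = every replicate shows inhibition of at least 40%; inconclusive = mean inhibition at least 40% but some replicate below; inactive = the rest.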
Assay: compounds lowering acetylated PGC1a in cells – cell-based, U2OS, AlphaScreen, inhibitor mode, primary screen (AID 651687);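 note: 0% = neutral control wells and 100% = positive control wells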
Details: U2OS PGC1a acetylation, AlphaScreen anti-acetyl-lysine; at 15.6 µM; stronger effect = higher value; with virally co-expressed GCN5 acetyltransferase

| Compound | inhibition |
| --- | --- |
| CCC(=O)N(c1ccccc1)C1(COC)CCN(CCn2nnn(CC)c2=O)CC1 | inactive: 2.65% |
| CCC(=O)N(c1ccccc1)C1(COC)CCN(CCc2cccs2)CC1 | inactive: 8.47% |

— PubChem BioAssay AID651687 (Broad Institute, 2012)
